{"source": "patent US20250092369A1", "about": "“METHOD FOR IMPROVING TRANSCYTOSIS PROPERTIES OF HUMAN BLOOD-BRAIN BARRIER MODEL” (Wisconsin Alumni Research Foundation, priority 2023, published 2025)", "test_system": "gene-edited PB-TRE-N1ICD hPSC-EPCs", "assay": "Fluorescent albumin accumulation assay in gene-edited PB-TRE-N1ICD hPSC-EPCs", "assay_type": "cell-based, human", "conditions": "PBS-treated 10(+CR2) cells, 30 min pretreatment: 3 mM MβCD, 20 µM CPZ or 2 μM rottlerin", "protocol": "Fixable, Alexa Fluor 647-conjugated bovine serum albumin (BSA) (Invitrogen) was used as a substrate to estimate total fluid-phase endocytosis. D15 cultures of gene-edited PB-TRE-N1ICD hPSC-EPCs treated with 4 μM CHIR with or without 1 μg/mL doxycycline were pre-treated for 30 min at 37° C. with or without various endocytic pathway inhibitors (3 mM methyl-β-cyclodextrin [MβCD, Sigma-Aldrich], 20 µM chlorpromazine [CPZ, Sigma-Aldrich], or 2 μM rottlerin [Tocris]). Similarly, D6 cultures of HUVECs treated with GFP or N1ICD LV were pre-treated with or without 3 mM MβCD for 30 min at 37° C. Cells were washed once with sterile DPBS and then incubated in hECSR (for hPSC-EPCs) supplemented with 5 μg/mL BSA or 1:1000 diluted DPBS, 1:100 diluted CD144-FITC or FITC isotype control antibody, and 4 μM Hoechst 33342 (Life Technologies) or EGM-2 media (for HUVECs) supplemented with 5 μg/mL BSA or 1:1000 diluted DPBS and 4 μM Hoechst 33342 at 4° C. or 37° C. for 2 h on a rotating platform at 30 rpm, protected from light. Cells were then washed 3 times with 4° C. sterile DPBS to stop the assay and wash away any extracellular BSA. […]\nFlow cytometry was used to quantify accumulated BSA fluorescence within cells. […] FITC emission was detected with a 530/30 filter and AlexaFluor 647 emission was detected with a 670/14 filter. Data were analyzed with Flow Jo software.", "data": [{"smiles": "CN(C)CCCN1c2ccccc2Sc2ccc(Cl)cc21", "note": "[CPZ, chlorpromazine]", "values": [{"measurement": "fluorescent albumin accumulation after endocytosis inhibitor pretreatment", "result": "reduced"}]}]}
